The values below are quoted from earlier work in patent publication US20170067909A1, “ASSAY-READY RECOMBINANT CELLS TRANSIENTLY OVEREXPRESSING GENES ENCODING DRUG TRANSPORTER PROTEINS AND/OR DRUG METABOLIZING ENZYMES” (Corning Incorporated, priority 2012, published 2017).

By UniProt entry, the sequences of proteins in these tests, tags left out. Where a name states a change or a piece, a line headed by the entry shows the natural chain unless it says otherwise.
UniProt Q9NPD5: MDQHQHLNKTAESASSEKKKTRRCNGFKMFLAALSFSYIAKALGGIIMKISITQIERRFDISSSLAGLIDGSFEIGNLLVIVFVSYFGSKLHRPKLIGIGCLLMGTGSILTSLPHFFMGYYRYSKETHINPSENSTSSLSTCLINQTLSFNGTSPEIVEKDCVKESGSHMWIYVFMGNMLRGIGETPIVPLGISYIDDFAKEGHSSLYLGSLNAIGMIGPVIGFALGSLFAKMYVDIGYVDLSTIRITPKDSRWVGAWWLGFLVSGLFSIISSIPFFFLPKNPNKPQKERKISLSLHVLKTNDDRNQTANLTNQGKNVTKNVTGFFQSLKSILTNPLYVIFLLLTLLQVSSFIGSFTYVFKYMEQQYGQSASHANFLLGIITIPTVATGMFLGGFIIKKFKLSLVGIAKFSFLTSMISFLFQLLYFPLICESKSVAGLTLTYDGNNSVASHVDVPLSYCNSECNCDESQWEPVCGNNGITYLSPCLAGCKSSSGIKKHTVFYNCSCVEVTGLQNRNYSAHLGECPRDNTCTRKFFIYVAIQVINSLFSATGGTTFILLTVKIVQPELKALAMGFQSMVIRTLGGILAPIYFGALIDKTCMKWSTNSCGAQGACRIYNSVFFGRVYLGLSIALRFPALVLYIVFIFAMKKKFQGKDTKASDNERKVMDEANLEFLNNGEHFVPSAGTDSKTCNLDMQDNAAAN

This data set concerns the target OATP1B3 (Homo sapiens, UniProt Q9NPD5). The note with it: read-out: Km, Literature Report; CHO Cells; Poirier A, et al., J Pharmacokinet Pharmacodyn, 2009; cited from earlier work.

With `CSCC[C@H](NC(=O)[C@H](Cc1ccc(OS(=O)(=O)O)cc1)NC(=O)[C@@H](N)CC(=O)O)C(=O)NCC(=O)N[C@@H](Cc1c[nH]c2ccccc12)C(=O)N[C@@H](CCSC)C(=O)N[C@@H](CC(=O)O)C(=O)N[C@@H](Cc1ccccc1)C(N)=O` [CCK-8, cholecystokinin], the Km is 16.5 µM.

Broadly, the Km is the substrate concentration at which the rate is half of its maximum.
